From paper PMC8805405, “A universal in silico V(D)J recombination strategy for developing humanized monoclonal antibodies” (Journal of Nanobiotechnology, 2022)

By UniProt entry, the sequences of proteins in these tests, tags left out. Residues count along the entry.
UniProt P01375, 77-233: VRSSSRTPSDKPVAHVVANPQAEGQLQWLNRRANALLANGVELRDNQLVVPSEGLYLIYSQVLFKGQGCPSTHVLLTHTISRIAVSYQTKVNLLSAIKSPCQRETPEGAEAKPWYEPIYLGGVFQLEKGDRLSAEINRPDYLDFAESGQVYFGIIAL

Biological target: T1, recombinant human TNF-α (Homo sapiens, UniProt P01375)
T1 construct: tumor necrosis factor alpha, human, recombinant; also called tumor necrosis factor (TNF)-α; source: bought: R&D Systems
Test: BLI; BLItz; human TNF-α (5 μg/mL in 10 mM acetate, pH 5) immobilised on AR2G biosensors by EDC/s-NHS; various concentrations of antibody at room temperature; global fit, BLItz Pro 1.2
Settings: both partners purified

B1: recombinant Remicade (antibody, V domains shown)
VH: EVKLEESGGGLVQPGGSMKLSCVASGFIFSNHWMNWVRQSPEKGLEWVAEIRSKSINSATHYAESVKGRFTISRDDSKSAVYLQMTDLRTEDTGVYYCSRNYYGSTYDYWGQGTTLTVSS
VL: DILLTQSPAILSVSPGERVSFSCRASQFVGSSIHWYQQRTNGSPRLLIKYASESMSGIPSRFSGSGSGTDFTLSINTVESEDIADYYCQQSHSWPFTFGSGTNLEVK
notes: heavy chain of Remicade (mouse VH, human constant region); light chain of Remicade (mouse VL, human constant region); Chimeric whole antibody made recombinantly here (detected with anti-human IgG-Fc); also called rRemicade; parental chimeric mAb; source: Expi293, transfected, purified (protein A sepharose)
**Q.** With B1 as the binder, how does the Kd read?
**A.** 0.513 nM

**Q.** What about the koff of the same binder?
**A.** 9.53e-05 s⁻¹

**Q.** And the kon?
**A.** 186000 M⁻¹ s⁻¹
